This passage reports relative growth results from published antibiotic growth screens (doi:10.1038/s41589-023-01349-8).

Each structure is given as a SMILES string. The list shows a part of the results.

The assay has as its system A. baumannii ATCC 17978. Put plainly: relative growth (fraction of control); higher = less inhibition. The settings on record: 50 µM.
Consider `Oc1ccnc(S)n1`, for which the relative growth was 0.994.
The compound `CCCCCCCCCCCCCCCC(=O)O[C@@H]1[C@@H](O)[C@@H](O)C([C@H](NC(=O)[C@@H]2C[C@@H](CCC)CN2C)[C@H](C)Cl)O[C@@H]1SC.Cl` (some centres undefined) yielded a relative growth of 0.828.
The result for `CC(=O)CCCCn1c(=O)c2c(ncn2C)n(C)c1=O` reads 1.14.
Consider `O=C(C[C@H]1C[C@H]2c3cc(NS(=O)(=O)c4ccc(F)cc4)ccc3O[C@H]2[C@H](CO)O1)NCc1ccccc1F`, for which the relative growth came out at 1.08.
Turning to `COc1cccc(C#Cc2ccc3c(c2)O[C@H](CN(C)C(=O)CN2CCOCC2)[C@H](C)CN([C@@H](C)CO)S3(=O)=O)c1`, the relative growth worked out at 0.9.
Next, `COc1ccc(C(=O)NCC#N)cc1`: 0.967.
For `CN1C(=O)OC(C)(C)C1=O`, the relative growth was 0.554.
`COCC#Cc1ccc2c(c1)O[C@@H](CN(C)S(C)(=O)=O)[C@@H](C)CN([C@H](C)CO)S2(=O)=O` yielded a relative growth of 1.
For `O=C(CO)C(O)C(O)C(O)CO` (centres undefined), the relative growth came to 0.999.
With `Cc1[nH]c(=O)n(C(C)(C)C)c(=O)c1C`, the relative growth amounted to 0.992.
In the case of `Cc1occc1C(=O)NNC(=O)C1CC1`, the relative growth was determined as 0.887.
In the case of `COc1ccc(S(=O)(=O)N[C@@H]2CC[C@H](CCNC(=O)CN3CCOCC3)O[C@@H]2CO)cc1`, the relative growth came out at 1.21.
As to `COC(=O)c1ccc2c(c1)no[n+]2[O-]`, the relative growth was 1.03.
Next, `O=C(C[C@H]1C[C@@H]2c3cc(NS(=O)(=O)c4ccc(F)cc4)ccc3O[C@@H]2[C@H](CO)O1)NCc1cccc(F)c1`: 1; `O=C(NCCN1CCNCC1)c1ccccn1`: 1.01.
Consider `NNC(=O)CNC(=O)[C@H]1COc2ccccc2O1`, for which the relative growth was 1.05.
With `CN1CCN(C(=O)C[C@H]2CC[C@H]3[C@@H](COC[C@@H](O)CN3S(=O)(=O)c3cccc(Cl)c3)O2)CC1`, the relative growth came to 0.97.
On to `Cc1ccc(S(=O)(=O)N[C@@H]2CC[C@H](CCNC(=O)CN3CCOCC3)O[C@H]2CO)cc1`, for which the relative growth turned out to be 1.13.
Next, `C=c1cc(C)cc(C)c1=C1NN=C(N)S1`: 1.12.
Regarding `O=C(O)c1ccc(CNc2cn[nH]c(=O)n2)cc1`, the relative growth amounted to 1.01.
The compound `Cc1cccn2c(=O)c(-c3nnn[n-]3)cnc12.[K+]` showed a relative growth of 1.29.
`Cc1cc(C(=O)c2cc3cc(Cl)ccc3o2)ccc1Cl` showed a relative growth of 1.08.
With `CCNC(=O)CC[C@@H](N)C(=O)O`, the relative growth came out at 1.01.
Take `CN1C(=O)c2cc(NC(=O)c3cscn3)ccc2OC[C@@H]2O[C@@H](CC(=O)N3CCOCC3)CC[C@H]21`: the relative growth turned out to be 0.892.
The compound `C[C@@H]1CN([C@@H](C)CO)S(=O)(=O)c2ccc(C#C[C@@H](C)O)cc2O[C@H]1CN(C)C` had a relative growth of 1.03.
The compound `CCc1cc(=O)oc2cc(C)c3c(-c4ccccc4)coc3c12` returned a relative growth of 1.39.
Take `O=C(Nc1cccnc1)c1nc2ncccn2n1`: the relative growth turned out to be 0.909.
The result for `C[C@H](CO)N1C[C@H](C)[C@H](CN(C)C(=O)CN2CCOCC2)Oc2ncc(C#C[C@@H](C)O)cc2C1=O` reads 1.21.
Next, `COc1ccc(S(=O)(=O)N[C@H]2CC[C@@H](CC(=O)N3CCN(c4ccccc4)CC3)O[C@H]2CO)cc1`: 0.973; `CC(C)CC#Cc1ccc2c(c1)O[C@@H](CN(C)C(=O)c1cnccn1)[C@@H](C)CN([C@@H](C)CO)S2(=O)=O`: 0.759.
The compound `C[C@@H]1CN([C@@H](C)CO)S(=O)(=O)c2ccc(C#CCN(C)C)cc2O[C@H]1CN(C)C(=O)c1ccccc1F` had a relative growth of 1.03.
The compound `O=C(C[C@@H]1C=C[C@@H](NS(=O)(=O)c2ccccc2)[C@H](CO)O1)NCc1ccncn1` came in with a relative growth of 1.11.
In the case of `O=C(O)c1ccc(S(=O)(=O)N(Cl)Cl)cc1`, the relative growth worked out at 0.989.
`O=C(Oc1ccccc1C(=O)O)c1ccccc1O` gave a relative growth of 1.28.
`Brc1ccc2nc(N3CCCN(Cc4ccccc4)CC3)nc(NC3CCN(Cc4ccccc4)CC3)c2c1` came in with a relative growth of 0.552.
In turn, `COc1c(C)c2c(c(O)c1C/C=C(\C)CCC(=O)O)C(=O)OC2` yielded a relative growth of 0.912.
Take `C[C@@H](O)Cn1c(=N)n(C)c2ccccc21`: the relative growth amounted to 1.22.
`C[C@@H]1CC2C3CCC4=CC(=O)C=C[C@]4(C)[C@@]3(F)[C@@H](O)C[C@]2(C)[C@@]1(O)C(=O)COP(=O)([O-])[O-].[Na+].[Na+]` (some centres undefined) showed a relative growth of 1.1.
For the compound `CC(C)CC#Cc1ccc2c(c1)O[C@@H](CN(C)C(=O)c1cnccn1)[C@H](C)CN([C@H](C)CO)S2(=O)=O`, the relative growth came to 0.916.
The compound `CCCNC(=O)N1C[C@@H](O)COC[C@@H]2O[C@@H](CC(=O)N3CCN(C)CC3)CC[C@H]21` had a relative growth of 0.96.
`CO[C@@H]1CN(C)C(=O)c2ccc(NC(=O)Nc3cccc(F)c3)cc2OC[C@H](C)N(C(=O)Nc2c(C)noc2C)C[C@@H]1C` showed a relative growth of 1.11.
Turning to `CCCOc1ccc(=O)n(C)n1`, the relative growth is 1.14.
As to `Fc1cccc(-c2csc(COc3ccccc3Cl)n2)c1`, the relative growth was found to be 1.01.
`N[C@@H](c1ccncc1)c1ccc(OCc2ccccc2)cc1` had a relative growth of 0.972.
`C[C@H](CO)N1C[C@H](C)[C@@H](CN(C)C(=O)Nc2ccnc(N3CCOCC3)c2)OCc2cnnn2CCCC1=O` had a relative growth of 0.921.
In turn, `C[C@H](CO)N1C[C@H](C)[C@H](CN(C)C(=O)c2ccc3c(c2)OCO3)Oc2cc(-c3ccncc3)ccc2S1(=O)=O` showed a relative growth of 1.04.
The compound `O=C1C(CCS(=O)c2ccccc2)C(=O)N(c2ccccc2)N1c1ccccc1` (centres undefined) gave a relative growth of 0.963.
`CCOC(=O)[C@H](C(C)=O)[C@H]1CCS(=O)(=O)C1` showed a relative growth of 1.05.
In turn, `CC(=O)NCc1nnnn1C1CCCCC1` came in with a relative growth of 1.13.
`CNC[C@H](O)[C@@H](O)[C@H](O)[C@H](O)CO`: the relative growth is 0.983.
With `O=C(C[C@@H]1CC[C@H]2[C@@H](COC[C@H](O)CN2C(=O)c2ccc3c(c2)OCO3)O1)NCCN1CCCCC1`, the relative growth was found to be 0.788.
`O=C(C[C@H]1C=C[C@@H](NC(=O)c2cccnc2)[C@@H](CO)O1)NCCN1CCCCC1` gave a relative growth of 1.01.
Regarding `CC(C)n1c(=S)[nH]c2ccccc21`, the relative growth was 0.969.
Compound `Cn1cnc(S(=O)(=O)N[C@H]2C=C[C@@H](CC(=O)N3CCN(c4ccccc4)CC3)O[C@H]2CO)c1` returned a relative growth of 1.09.
In turn, `COc1cccc(OC)c1C(=O)NN` had a relative growth of 1.04.
Regarding `O=C(N/N=C/[C@H](O)[C@@H](O)[C@@H](O)[C@H](O)C(=O)O)c1ccccn1`, the relative growth is 0.811.
`OC[C@H]1O[C@H](Oc2cc(O)cc(/C=C/c3ccc(O)cc3)c2)[C@H](O)[C@@H](O)[C@@H]1O` yielded a relative growth of 1.19.
In turn, `COCC(=O)N1C[C@H](C)[C@H](OC)CN(C)C(=O)c2ccc(NC(=O)Nc3cccc(F)c3)cc2OC[C@H]1C` returned a relative growth of 0.852.
On to `CO[C@@H]1CN(C)C(=O)c2cc(NS(C)(=O)=O)ccc2OC[C@H](C)N(C(=O)C2CCCCC2)C[C@@H]1C`, for which the relative growth is 0.982.
